We go through 20 compounds from ChEMBL document CHEMBL1938272 (Bioorg Med Chem, 2012).

For one test, the system named is HEK293. Briefly: Inhibition of TNFalpha-activated NF-kappaB expressed in HEK293 cells at 50 uM by luciferase reporter gene assay. The class given is cell-based.
Take `Fc1ccccc1-c1nsc(-c2ccccc2F)n1`: the inhibition turned out to be 28.3%.
Consider `Clc1ccc(-c2nsc(-c3ccc(Cl)c(Cl)c3)n2)cc1Cl`, for which the inhibition came to 38.3%.
On to `c1ccc(-c2nsc(-c3ccccc3)n2)cc1`, for which the inhibition is 82.4%.
As to `O=[N+]([O-])c1ccc(-c2nsc(-c3ccc([N+](=O)[O-])cc3)n2)cc1`, the inhibition is 15.9%.
As for `Nc1ccc(-c2nsc(-c3ccc(N)cc3)n2)cc1`, the inhibition amounted to 90.6%.
The compound `Clc1ccccc1-c1nsc(-c2ccccc2Cl)n1` registered an inhibition of 25.3%.
For the compound `Oc1ccc(-c2nsc(-c3ccc(O)cc3)n2)cc1`, the inhibition turned out to be 78.9%.
Compound `N#Cc1cccc(-c2nsc(-c3cccc(C#N)c3)n2)c1` had an inhibition of 46.5%.
Still for that read-out and setting: the value for `c1ccc2cc(-c3nsc(-c4ccc5ccccc5c4)n3)ccc2c1` was 48.5%.
Take `Ic1ccccc1-c1nsc(-c2ccccc2I)n1`: the inhibition came to 10.9%.
In the case of `Clc1ccc(-c2nsc(-c3ccc(Cl)cc3Cl)n2)c(Cl)c1`, the inhibition came to 45.8%.
Consider `N#Cc1ccc(-c2nsc(-c3ccc(C#N)cc3)n2)cc1`, for which the inhibition is 18.2%.
As for `CCCCc1ccc(-c2nsc(-c3ccc(CCCC)cc3)n2)cc1`, the inhibition was 39.4%.
`Oc1cccc(-c2nsc(-c3cccc(O)c3)n2)c1` yielded an inhibition of 60.4%.
Regarding `Fc1cccc(-c2nsc(-c3cccc(F)c3)n2)c1`, the inhibition was found to be 15.4%.
In turn, `Cc1ccc(-c2nsc(-c3ccc(C)cc3)n2)cc1` gave an inhibition of 35.4%.
As to `COc1ccc(-c2nsc(-c3ccc(OC)cc3)n2)cc1`, the inhibition was 21.2%.
For `Cc1cccc(-c2nsc(-c3cccc(C)c3)n2)c1`, the inhibition was found to be 84.4%.
On to `Clc1ccc(Cl)c(-c2nsc(-c3cc(Cl)ccc3Cl)n2)c1`, for which the inhibition is 40.3%.

The next test deals with Radical scavenging activity. The test can be described thus: Antioxidant activity assessed as DPPH free radical scavenging activity at 400 uM after 30 mins by spectrophotometry. The class given is functional.
Regarding `c1ccc(-c2nsc(-c3ccccc3)n2)cc1`, the inhibition amounted to 8.26%.
Take `Nc1ccc(-c2nsc(-c3ccc(N)cc3)n2)cc1`: the inhibition turned out to be 33.1%.
Turning to `Ic1ccc(-c2nsc(-c3ccc(I)cc3)n2)cc1`, the inhibition came to 16.2%.
